Measurements from US9290529B2, “Carbonic anhydrase inhibitors and method of their production” (USTAV ORGANICKE CHEMIE A BIOCHEMIE AKADEMIE VED CESKE …, priority 2011, dated 2016).

Test: Orientational pharmacokinetics, serum concentrations by HPLC
Conditions: intraperitoneally at the MTD, female NMRI mice

## 8-methylensulfamide-8″-methoxy-3,3′-commo-bis(1,2-dicarba-3-cobalta(III)-closo-dodecabor)ate (1-) [CB-4]
  serum concentrations overcoming carbonic anhydrase IX in vitro IC50 (calculated from the cmax values): 120 ×

## 8-butyloxysulfamide-3,3′-commo-bis(decahydro-1,2-dicarba-3-cobalta(III)-closo-dodekabor)ate (1-) [CB-16]
  serum concentrations overcoming carbonic anhydrase IX in vitro IC50 (calculated from the cmax values): 12 ×
